Experimental data taken from patent publication US20260001863A1, “NOVEL PYRIDAZINES” (Boehringer Ingelheim International GmbH, priority 2019, published 2026).

Test system: plasma LPA
Experiment: Assay C: In Vivo (plasma LPA reduction after oral dosing)
Conditions: rats, oral 5 mg/kg, plasma 8 hours post application vs baseline; sum of LPA 16:0, 18:0, 18:1, 18:2, 20:4

CCc1nc2c(F)cc(N3CCN(CC(=O)N4CC(O)C4)CC3)cn2c1N(C)c1nc(-c2ccc(F)cc2)c(C#N)s1
LPA reduction at 8 h: 60.3%
